{
  "sequences": {"note": "Sequences of proteins named here, by UniProt entry; tags and fusion partners are left off. Residues count along the entry.", "UniProt Q9NR97, 27-1041 limits assumed": "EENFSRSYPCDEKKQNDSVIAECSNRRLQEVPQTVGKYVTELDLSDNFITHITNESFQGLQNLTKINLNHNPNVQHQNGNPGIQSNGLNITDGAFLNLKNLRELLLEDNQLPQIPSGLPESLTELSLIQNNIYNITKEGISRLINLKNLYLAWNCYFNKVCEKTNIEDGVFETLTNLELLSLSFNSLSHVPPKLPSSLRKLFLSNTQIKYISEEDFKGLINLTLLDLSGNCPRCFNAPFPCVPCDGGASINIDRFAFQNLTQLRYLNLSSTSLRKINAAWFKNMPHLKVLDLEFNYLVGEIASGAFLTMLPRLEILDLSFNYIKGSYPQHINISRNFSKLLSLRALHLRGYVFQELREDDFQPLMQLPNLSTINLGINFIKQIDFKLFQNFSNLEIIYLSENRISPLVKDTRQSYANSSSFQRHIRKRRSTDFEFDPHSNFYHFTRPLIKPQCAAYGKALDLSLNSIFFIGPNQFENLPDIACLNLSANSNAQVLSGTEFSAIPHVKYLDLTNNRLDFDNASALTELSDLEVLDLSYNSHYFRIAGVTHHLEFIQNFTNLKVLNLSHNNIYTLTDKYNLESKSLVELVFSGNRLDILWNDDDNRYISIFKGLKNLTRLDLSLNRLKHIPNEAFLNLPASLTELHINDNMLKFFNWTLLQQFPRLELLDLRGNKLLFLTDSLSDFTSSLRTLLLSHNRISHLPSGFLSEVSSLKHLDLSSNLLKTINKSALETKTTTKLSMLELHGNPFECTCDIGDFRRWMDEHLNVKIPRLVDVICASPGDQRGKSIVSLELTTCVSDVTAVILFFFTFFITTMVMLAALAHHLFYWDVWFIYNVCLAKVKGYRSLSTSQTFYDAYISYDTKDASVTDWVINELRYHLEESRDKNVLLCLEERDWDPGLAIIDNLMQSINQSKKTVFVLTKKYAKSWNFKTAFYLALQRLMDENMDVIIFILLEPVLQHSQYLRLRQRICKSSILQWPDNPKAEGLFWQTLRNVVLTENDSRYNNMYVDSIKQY"},
  "source": "patent US20240376099A1",
  "about": "“COMPOUNDS AND COMPOSITIONS AS INHIBITORS OF ENDOSOMAL TOLL-LIKE RECEPTORS” (Novartis AG, priority 2016, published 2024)",
  "key": {"[1]": {"molecular_target": "TLR8 (Homo sapiens, UniProt Q9NR97)", "assay": "huPBMC TLR8 Antagonist IL-6 TR-FRET Assay", "details": "read-out: huPBMC TLR8 Antagonist IL-6 TR-FRET Assay IC50; human PBMCs stimulated with ssRNA40 1 μg/ml (DOTAP), 14-16 hrs; IL-6 TR-FRET read-out", "experimental": "(§1) Compounds were generally serially diluted (1/3) in DMSO and plated on sterile 384 well tissue culture plates and stored until ready for use. Each ten-point dilution was typically plated in triplicate in parallel rows.\n(§2) Fresh blood was collected from normal human donors underwritten informed consent in heparinized syringes on the morning of the assay. The blood was diluted in RPMI-1640 medium and the white blood cells were separated from red blood cells by centrifugation (800 g 15′ 0 acceleration, 0 brake) on a Ficoll cushion. Peripheral blood mononuclear cells (PBMCs) were separated from platelets by a series of low-speed centrifugations (1000RPM 10′) in PBS+5% HI—FBS and 1 mM EDTA. Purified PBMCs were re-suspended in assay medium (RPMI-1640 w Glutamax (Invitrogen) supplemented with 5% HI—FBS, 10 mM HEPES, 50 uM β-mercaptoethanol, and 100 mG/L penicillin/streptomycin cocktail). Viable PBMCs were counted on a hemacytometer and kept on ice until ready for plating.\n(§3) A 4× concentration (4 ug/ml or 40 ug/ml for TLR8 or TLR7 assays, respectively) of the TLR7/8 agonist ssRNA40 (IDT) was complexed with 10% DOTAP (Roche) in assay medium for 30 min prior to addition to the PBMC suspension (5 million cells/ml). After addition, the final concentration of ssRNA40 in the TLR7/8 stimulated PBMC suspension was 1 μg/ml for TLR8 assay, and 10 μg/mL for the TLR7 assay. […]"}, "[2]": {"molecular_target": "TLR9 (Homo sapiens, UniProt Q9NR96)", "assay": "huPBMC TLR9 Antagonist IFNα Assay", "details": "read-out: huPBMC TLR9 Antagonist IFNα Assay IC50; human PBMCs stimulated with ODN2216 0.3 μM, 14-16 hrs; IFNα2b AlphaLISA read-out", "experimental": "as §1, §2, §3"}},
  "note": "pIC50: −log10 of the molar value.",
  "data": [
    {"smiles": "COC(C)(C)CNC12CCC(Cn3nc(C)c4c3CCN(c3cc(C)nc5c3cnn5C)C4)(CC1)CC2", "values": [
      {"measurement": "pIC50", "setting": "[1]", "value": 7.15},
      {"measurement": "pIC50", "setting": "[2]", "value": 5.58}
    ]}
  ]
}
